Patent US20260200947A1, “FUSED CYCLIC COMPOUNDS AND USE THEREOF” (Jacobio Pharmaceuticals Co., Ltd., priority 2022, published 2026)
Where two headings read alike, the source gives them in different places.

Chains of the proteins cited; added tags and fusions are not shown. Residues count along the entry.
UniProt P01116, 1-169 isoform 2 G12D limits assumed: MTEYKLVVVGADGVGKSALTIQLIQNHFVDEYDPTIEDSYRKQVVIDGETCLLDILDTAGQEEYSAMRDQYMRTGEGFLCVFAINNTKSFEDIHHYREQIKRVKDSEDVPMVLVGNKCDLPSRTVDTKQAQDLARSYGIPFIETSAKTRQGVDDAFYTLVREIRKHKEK
UniProt P01116, 1-169 isoform 2 G12V limits assumed: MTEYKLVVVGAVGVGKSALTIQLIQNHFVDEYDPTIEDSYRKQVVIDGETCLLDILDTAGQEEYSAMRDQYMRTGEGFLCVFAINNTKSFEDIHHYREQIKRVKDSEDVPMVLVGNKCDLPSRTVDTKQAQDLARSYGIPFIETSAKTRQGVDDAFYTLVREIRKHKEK

Columns and labels:
[1] = target: GppNp-KRAS G12V (Homo sapiens, UniProt P01116, G12V); experiment: GTP-K-Ras and cRAF interaction assay, GppNp-KRAS G12V; conditions: read-out: Biochemical assays, IC50, KRAS G12V GppNp, GppNp-loaded K-Ras G12V, cRAF RBD interaction, HTRF
[2] = target: GDP-KRAS G12D (Homo sapiens, UniProt P01116, G12D); experiment: SOS1 catalyzed nucleotide exchange assay, GDP-KRAS G12D
[3] = target: GppNp-KRAS G12D (Homo sapiens, UniProt P01116, G12D); experiment: GTP-K-Ras and cRAF interaction assay, GppNp-KRAS G12D; conditions: read-out: Biochemical assays, IC50, KRAS G12D GppNp, GppNp-loaded K-Ras G12D, cRAF RBD interaction, HTRF
[4] = target: GDP-KRAS G12V (Homo sapiens, UniProt P01116, G12V); experiment: SOS1 catalyzed nucleotide exchange assay, GDP-KRAS G12V
[5] = system: SW620 cells (K-Ras G12V); experiment: Phospho-ERK1/2(THR202/TYR204) HTRF assay, SW620
[6] = tested form: trifluoroacetate (TFA salt)
[7] = read-out: Biochemical assays, IC50, KRAS G12D GDP, GDP form K-Ras G12D, TR-FRET, tested form: trifluoroacetate (TFA salt)
[8] = read-out: Biochemical assays, IC50, KRAS G12V GDP, GDP form K-Ras G12V, TR-FRET, tested form: trifluoroacetate (TFA salt)
[9] = read-out: Biochemical assays, IC50, KRAS G12D GDP, GDP form K-Ras G12D, TR-FRET
[10] = read-out: Biochemical assays, IC50, KRAS G12V GDP, GDP form K-Ras G12V, TR-FRET
[11] = read-out: pERK, IC50, SW620, 2 hours incubation

Compound	IC50 [1] [nM]	IC50 [2, 9] [nM]	IC50 [3] [nM]	IC50 [4, 10] [nM]	IC50 [5, 11] [nM]	further results
C#Cc1c(F)ccc2cc(N)cc(-c3nc4c5c(nc(OCC67CCCN6CC(=CF)C7)nc5c3F)N3CCCOC[C@H]3CO4)c12 (single isomer, unassigned) [Compound 5B]						IC50 [1, 6]: 161 nM; IC50 [2, 7]: 1.62 nM; IC50 [3, 6]: 80.8 nM; IC50 [4, 8]: 0.86 nM
C#Cc1c(F)ccc2cc(N)cc(-c3nc4c5c(nc(OC[C@@]67CCCN6C[C@H](F)C7)nc5c3F)N3CCCCC[C@@H]3N4C)c12	> 1000	341	> 1000	40.2		
C#Cc1c(F)ccc2cc(N)cc(-c3nc4c5c(nc(OC[C@@]67CCCN6C[C@H](F)C7)nc5c3F)N3CCCCOC[C@H]3N4C)c12	158	2.1	63.9	1.45	5.23	
C#Cc1c(F)ccc2cc(N)cc(-c3nc4c5c(nc(OCC67CCCN6CC(F)C7)nc5c3F)N3C(C(C)C)CCOCC3N4C)c12 (centres unmarked)	> 1000	34.4	> 1000	14.6		
C#Cc1c(F)ccc2cc(N)cc(-c3nc4c5c(nc(OC[C@@]67CCCN6C[C@H](F)C7)nc5c3F)N3C(COC)CCOCC3N4C)c12 (some centres unmarked)	160	1.77	101	1.02		
C#Cc1c(F)ccc2cc(N)cc(-c3nc4c5c(nc(OC[C@@]67CCCN6C[C@H](F)C7)nc5c3F)N3CCCCC[C@H]3C4=C)c12	153	1.67	98.5	1.96	5.71	
C#Cc1c(F)ccc2cc(N)cc(-c3nc4c5c(nc(OCC67CCCN6CC(=CF)C7)nc5c3F)N3CCCOC[C@H]3CO4)c12 (single isomer, unassigned) [Compound 5A]						IC50 [1, 6]: 130 nM; IC50 [2, 7]: 1.82 nM; IC50 [3, 6]: 104 nM; IC50 [4, 8]: 1.12 nM
C#Cc1c(F)ccc2cc(N)cc(-c3nc4c5c(nc(OC[C@@]67CCCN6C[C@H](F)C7)nc5c3F)N3CCCC=C[C@@H]3N4C)c12	> 1000	104	> 1000	108		
C#Cc1c(F)ccc2cc(N)cc(-c3nc4c5c(nc(OC[C@@]67CCCN6C[C@H](F)C7)nc5c3F)N3C[C@H](OC)COC[C@H]3N4C)c12	686	9.92	341	3.5		
C#Cc1c(F)ccc2cc(N)cc(-c3nc4c5c(nc(OCC67CCCN6CC(=C(F)F)C7)nc5c3F)N3CCCOCC3CO4)c12 (single isomer, unassigned) [Compound 26A]	220	2.3	109	2.57	6.99	
C#Cc1c(F)ccc2cc(N)cc(-c3nc4c5c(nc(OC[C@@]67CCCN6C[C@H](F)C7)nc5c3F)N3CCC=C[C@@H](F)[C@@H]3N4C)c12	> 1000	142	> 1000	63.9		
C#Cc1c(F)ccc2cc(N)cc(-c3nc4c5c(nc(OC[C@@]67CCCN6C[C@H](F)C7)nc5c3F)N3C[C@@H](OC)COC[C@H]3N4C)c12	> 1000	3.08	339	1.7		
C#Cc1c(F)ccc2cc(N)cc(-c3nc4c5c(nc(OC[C@@]67CCCN6C[C@H](F)C7)nc5c3F)N3CC(F)(F)CCC[C@H]3N4C)c12	225	1.45	47.4	1.45		
C#Cc1c(F)ccc2cc(N)cc(-c3nc4c5c(nc(OCC67CCCN6CC(F)C7)nc5c3F)N3CC(C)(O)COCC3N4C)c12 (single isomer, unassigned) [Compound 156C]	336	1.82	32.7	2.15		
C#Cc1c(F)ccc2cc(N)cc(-c3nc4c5c(nc(OC[C@@]67CCCN6C[C@H](F)C7)nc5c3F)N3CCCC=C[C@H]3N4C)c12	427	2.02	114	1.81	6.39	
C#Cc1c(F)ccc2cc(N)cc(-c3nc4c5c(nc(OC[C@@]67CCCN6C[C@H](F)C7)nc5c3F)N3CCCCC[C@H]3N4C)c12	123	1.09	29.3	1.08	1.84	
C#Cc1c(F)ccc2cc(N)cc(-c3nc4c5c(nc(OC[C@@]67CCCN6C[C@H](F)C7)nc5c3F)N3CCCOCC3N4C)c12 (single isomer, unassigned)	52.1	0.766	44.2	0.538	1.66	
C#Cc1c(F)ccc2cc(N)cc(-c3nc4c5c(nc(OCC67CCCN6CC(F)C7)nc5c3F)N3CC(C)(O)COCC3N4C)c12 (single isomer, unassigned) [Compound 156A]	440	3.4	126	1.98		
C#Cc1c(F)ccc2cc(N)cc(-c3nc4c5c(nc(OC[C@@]67CCCN6C[C@H](F)C7)nc5c3F)N3CC(F)COCC3N4C)c12 (single isomer, unassigned) [Compound 39A]	142	1.01	46.1	0.667	1.93	
C#Cc1c(F)ccc2cc(N)cc(-c3nc4c5c(nc(OCC67CCCN6CC(=C(F)F)C7)nc5c3F)N3CCCOCC3CO4)c12 (single isomer, unassigned) [Compound 26B]	120	0.551	63.2	0.839	2.05	
C#Cc1c(F)ccc2cc(N)cc(-c3nc4c5c(nc(OCC67CCCN6CC(F)C7)nc5c3F)N3CC(C)(O)COCC3N4C)c12 (single isomer, unassigned) [Compound 156B]	> 1000	63.8	> 1000	37.8		
C#Cc1c(F)ccc2cc(N)cc(-c3nc4c5c(nc(OC[C@@]67CCCN6C[C@H](F)C7)nc5c3F)N3CCCC[C@](C)(F)[C@H]3N4C)c12	> 1000	11.1	593	21.3		
C#Cc1c(F)ccc2cc(N)cc(-c3nc4c5c(nc(OC[C@@]67CCCN6C[C@H](F)C7)nc5c3F)N3CCCC[C@H](Cl)[C@H]3N4C)c12	63.7	0.548	21.6	0.887		
C#Cc1c(F)ccc2cc(N)cc(-c3nc4c5c(nc(OC[C@@]67CCCN6C[C@H](F)C7)nc5c3F)N3CCCOCC3N4CC)c12 (some centres unmarked)						IC50 ([1]; tested form: TFA): 265 nM; IC50 ([2]; read-out: Biochemical assays, IC50, KRAS G12D GDP, GDP form K-Ras G12D, TR-FRET, tested form: TFA): 3.56 nM; IC50 ([5]; read-out: pERK, IC50, SW620, 2 hours incubation, tested form: TFA): 5.63 nM; IC50 ([3]; tested form: TFA): 302 nM; IC50 ([4]; read-out: Biochemical assays, IC50, KRAS G12V GDP, GDP form K-Ras G12V, TR-FRET, tested form: TFA): 3.18 nM
C#Cc1c(F)ccc2cc(N)cc(-c3nc4c5c(nc(OC[C@@]67CCCN6C[C@H](F)C7)nc5c3F)N3CC(F)COCC3N4C)c12 (single isomer, unassigned) [Compound 39B]	226	1.8	189	1.22	4.98	
